Source: patent US9815819B2, “Complement pathway modulators and uses thereof” (priority 2012, dated 2017)

Sequences of proteins named here, by UniProt entry; tags and fusion partners are left off. Residues count along the entry.
UniProt P00746, 26-253: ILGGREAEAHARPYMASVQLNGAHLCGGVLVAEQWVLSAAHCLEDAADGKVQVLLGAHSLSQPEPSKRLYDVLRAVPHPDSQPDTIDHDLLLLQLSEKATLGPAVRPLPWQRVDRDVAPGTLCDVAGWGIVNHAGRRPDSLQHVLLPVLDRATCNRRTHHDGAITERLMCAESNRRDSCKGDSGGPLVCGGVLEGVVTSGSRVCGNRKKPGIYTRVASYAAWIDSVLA

Biological target: Recombinant human factor D (Homo sapiens (Human), UniProt P00746)
Test: Human Complement Factor D Assay: Method 1
Assay type: biochemical
Details: Factor D inhibition, Method 1: 10 nM factor D, 1 hour incubation with compound at room temperature, substrate Z-Lys-thiobenzyl, fluorescence readout

NC(=O)c1nn(CC(=O)N2[C@@H]3C[C@@H]3C[C@H]2C(=O)NC2CCCC(c3ccccc3)C2)c2cnccc12 (single isomer, unassigned) [Example 82]
IC50: 230 nM

NC(=O)c1nn(CC(=O)N2[C@@H]3C[C@@H]3C[C@H]2C(=O)NC2CC[C@@H](c3ccccc3)C2)c2cnccc12 (single isomer, unassigned) [Example 85]
IC50: 1230 nM

NC(=O)c1nn(CC(=O)N2[C@@H]3C[C@@H]3C[C@H]2C(=O)NC2CC[C@H](c3ccccc3)C2)c2cnccc12 (single isomer, unassigned) [Example 83]
IC50: 1290 nM

NC(=O)c1nn(CC(=O)N2[C@@H]3C[C@@H]3C[C@H]2C(=O)NC2CC[C@H](c3ccccc3)C2)c2cnccc12 (single isomer, unassigned) [Example 84]
IC50: 1450 nM

NC(=O)c1nn(CC(=O)N2[C@@H]3C[C@@H]3C[C@H]2C(=O)NC2CC[C@@H](c3ccccc3)C2)c2cnccc12 (single isomer, unassigned) [Example 86]
IC50: 648 nM
